Results from patent US8642759B2, “Benzene sulfonamide thiazole and oxazole compounds” (GlaxoSmithKline LLC, priority 2008, dated 2014).

By UniProt entry, the sequences of proteins in these tests, tags left out. Residues count along the entry.
UniProt P15056, 2-766 V600E limits assumed: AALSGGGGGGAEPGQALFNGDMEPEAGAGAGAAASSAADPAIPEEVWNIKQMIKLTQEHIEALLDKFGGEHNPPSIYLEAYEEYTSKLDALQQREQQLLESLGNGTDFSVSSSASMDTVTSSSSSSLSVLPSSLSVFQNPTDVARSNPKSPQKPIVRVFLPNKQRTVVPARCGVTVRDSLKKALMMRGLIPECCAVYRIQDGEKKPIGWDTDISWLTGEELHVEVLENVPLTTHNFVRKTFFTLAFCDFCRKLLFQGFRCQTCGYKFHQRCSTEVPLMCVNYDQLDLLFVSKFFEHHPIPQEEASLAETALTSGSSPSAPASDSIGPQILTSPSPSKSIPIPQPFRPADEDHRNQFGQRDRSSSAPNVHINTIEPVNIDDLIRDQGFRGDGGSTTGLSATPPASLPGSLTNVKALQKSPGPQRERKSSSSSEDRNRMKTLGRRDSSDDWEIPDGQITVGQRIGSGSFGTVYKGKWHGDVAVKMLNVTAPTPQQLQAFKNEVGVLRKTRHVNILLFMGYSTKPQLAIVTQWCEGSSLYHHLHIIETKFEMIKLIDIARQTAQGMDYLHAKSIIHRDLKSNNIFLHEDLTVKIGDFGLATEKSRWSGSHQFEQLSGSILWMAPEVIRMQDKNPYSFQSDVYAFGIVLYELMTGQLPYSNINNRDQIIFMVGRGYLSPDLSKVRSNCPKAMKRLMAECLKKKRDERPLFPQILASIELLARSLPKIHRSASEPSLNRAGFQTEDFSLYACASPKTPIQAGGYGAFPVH

Target: His6-tagged BRAFV600E full-length (amino acids 2-766) (Homo sapiens, UniProt P15056, V600E)
Settings: Table 1a; highest pIC50 for the one or more runs

Compound | B-Raf Activity
COCCCNc1nccc(-c2sc(N3CCOCC3)nc2-c2cccc(NS(=O)(=O)c3cc(F)ccc3F)c2F)n1 | +++ (indicates at least one pIC50 measurement of greater than 7 against B-Raf)
CC(C)c1nc(-c2ccc(F)c(NS(=O)(=O)c3c(F)cccc3F)c2)c(-c2ccnc(NCC(F)(F)F)n2)s1 | ++ (indicates at least one pIC50 measurement greater than 6 against B-Raf but no measurement greater than pIC50 of 7)
